According to patent US5773423A (priority 1994, dated 1998):
Like-named read-outs stand apart in the source and are kept apart here.

How the values were obtained:
rat A3 receptor [1] = target: T1, rat A3 receptor (Rattus norvegicus, UniProt P28647); conditions: CHO cells
T1 sequence (P28647 1-320): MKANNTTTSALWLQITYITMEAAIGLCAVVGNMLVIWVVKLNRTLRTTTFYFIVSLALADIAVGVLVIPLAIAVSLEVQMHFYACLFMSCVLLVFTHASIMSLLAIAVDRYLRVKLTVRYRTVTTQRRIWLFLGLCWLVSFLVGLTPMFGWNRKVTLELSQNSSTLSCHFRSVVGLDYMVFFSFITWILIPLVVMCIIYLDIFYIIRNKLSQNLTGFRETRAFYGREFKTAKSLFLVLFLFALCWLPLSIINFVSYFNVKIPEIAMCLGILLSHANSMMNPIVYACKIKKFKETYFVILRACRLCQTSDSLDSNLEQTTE

rat A3 receptor [2] = target: T1, rat A3 receptor; assay: biochemical; format: binding
[3] = CHO cells stably transfected with rat A3 cDNA, [125I]APNEA or [125I]AB-MECA, read-out: A3 affinity Ki
[4] = read-out: A3 percent displacement
[5] = Table 2, [125I]AB-MECA, CHO/rat A3, read-out: Ki (A3)
[6] = at 100 μM, read-out: A3 percent displacement

For `CNC(=O)[C@H]1O[C@@H](n2cnc3c(NCc4cccc(I)c4)nc(Cl)nc32)[C@H](O)[C@@H]1O` [Example 44, 2-chloro-N^6-(3-iodobenzyl)-9-[5-(methylamido)-β-D-ribofuranosyl]-adenine], the “agonist effect in inhibition of adenylate cyclase via A3 receptors (in words)” value (shortened to “agonist effect in inhibition”) (rat A3 receptor [1]) was “full agonist” and the “A3 affinity greater than IB-MECA” value (rat A3 receptor [2]) was 5 fold.
For `CCNC(=O)[C@H]1O[C@@H](n2cnc3c(NCc4ccccc4)ncnc32)[C@H](O)[C@@H]1O` [Compound 28, N^6-benzyladenosine-5'-N-ethyluronamide], the “agonist effect in inhibition” value (rat A3 receptor [1]) was “full agonists”, the “fold more potent than N6-benzyladenosine at A3 receptors” value (rat A3 receptor [2]) was 18 fold and the “selectivity for A3 over A1 receptors” value (rat A3 receptor [2]) was 13 fold. For the same compound, the “selectivity for A3 over A2 (A2a) receptors” value (rat A3 receptor [2]) was 14 fold and the Ki (rat A3 receptor [2]; [3]) was 6.8 ± 2.5 nM.
`CCCCn1c(=O)c2c(ncn2[C@@H]2O[C@H](CO)[C@@H](O)[C@H]2O)n(CCCC)c1=O` [Compound 119, 1,3-di-n-butylxanthine-7-β-D-ribofuranoside] was tested, and the “agonist effect in inhibition” value (rat A3 receptor [1]; listed as 1,3-Dibutylxanthine-7-riboside) was “partial agonist”, the “agonist effect in inhibition” value (rat A3 receptor [1]; listed as 1,3-dibutyl-xanthine-riboside) was “shallow dose response curve in inhibition of adenylate cyclase” and the A1/A3 (rat A3 receptor [2]; Table 4, ratio of Ki) was 0.69. It also gave an A2/A3 (rat A3 receptor [2]; Table 4, ratio of Ki) of 3.2.
Work on `CCNC(=O)[C@H]1O[C@@H](n2cnc3c(NCc4ccc([N+](=O)[O-])cc4)ncnc32)[C@H](O)[C@@H]1O` [Compound 63, N^6-(4-nitrobenzyl)adenosine-5'-N-ethyluronamide] yielded a Ki (rat A3 receptor [2]; [3]) of 9 ± 1.3 nM.
In the case of `Nc1ncnc2c1ncn2[C@H]1O[C@H](CO)[C@@H](O)[C@H]1O` [Compound 69, α-D-adenosine], the inhibition at 100 µM (rat A3 receptor [2]; [4]) is reported as 14.2 ± 6.5% and the IC50 (rat A3 receptor [2]; read-out: IC50 at A3 receptors) is reported as > 100000 nM.
In the case of `CC(C)(C)OC(=O)NCCNC(=O)[C@H]1O[C@@H](n2cnc3c(N)ncnc32)[C@H](O)[C@@H]1O` [Compound 26, 5'-N-boc-aminoethylaminocarboxamidoadenosine], the “selectivity (in words)” value (rat A3 receptor [2]) is reported as “A3 -selective” and the Ki (rat A3 receptor [2]; [3]) is reported as 18000 nM.
`Nc1ccc(CCNc2ncnc3c2ncn3[C@@H]2O[C@H](CO)[C@@H](O)[C@H]2O)cc1` [APNEA, N^6-2-(4-aminophenyl)ethyladenosine, reference compound] gave a Ki (rat A3 receptor [2]; [5]) of 116 ± 18 nM.
With `Cn1c(=O)[nH]c2c(ncn2C)c1=O` [Compound 105, 1,9-dimethylX, reference compound] the inhibition at 100 µM (rat A3 receptor [2]; [4]) was 17 ± 7.9%.
Work on `Cn1cnc2[nH]c(=O)[nH]c(=O)c21` [Compound 101, 7-methylX, reference compound] yielded an inhibition at 100 µM (rat A3 receptor [2]; [4]) of 16.4 ± 9.6%.
With `Nc1nc2c(ncn2[C@@H]2O[C@H](CO)[C@@H](O)[C@H]2O)c(=S)[nH]1` [Compound 88, 6-thioguanosine, reference compound] the inhibition at 100 µM (rat A3 receptor [2]; [6]) was 44.8 ± 18.1%.
Compound `OC[C@H]1O[C@@H](n2cnc3c(O)ncnc32)[C@H](O)[C@@H]1O` [Compound 85, inosine, reference compound] has a Ki (rat A3 receptor [2]; [3]) of 45100 nM and a Ki (rat A3 receptor [2]; read-out: Ki at A3 receptors) of 45000 nM.
`CCNC(=O)[C@H]1O[C@@H](n2cnc3c(NCc4cccc(F)c4)ncnc32)[C@H](O)[C@@H]1O` [Compound 57, N^6-(3-fluorobenzyl)adenosine-5'-N-ethyluronamide] was tested, and the Ki (rat A3 receptor [2]; [3]) was 10.7 ± 1.2 nM.
With `Nc1nc2ccc(Cl)cc2n2c(-c3ccccc3)nnc12` [Compound 92, 4-amino-8-chloro-1-phenyl[1,2,4]-triazolo [4,3-a]quinoxaline] the inhibition at 100 µM (rat A3 receptor [2]; [4]) was 29.7 ± 7.8% and the Ki (rat A3 receptor [2]; read-out: Ki at A3 receptors) was ≥ 100000 nM.
With `CNC(=O)[C@H]1O[C@@H](n2cnc3c(NCc4cccc(Br)c4)ncnc32)[C@H](O)[C@@H]1O` [Compound 41, N^6-(3-bromobenzyl)-NMCA] the Ki (rat A3 receptor [2]; [3]) was 1 ± 0.3 nM.
`CCCn1c(=S)[nH]c(=O)c2[nH]cnc21` [Compound 114, 2-thio-3-propylX, reference compound] showed an inhibition at 100 µM (rat A3 receptor [2]; [4]) of 27.7 ± 11.3%.
With `CCNC(=O)[C@H]1O[C@@H](n2cnc3c(NCc4ccccc4OC)ncnc32)[C@H](O)[C@@H]1O` [Compound 65, N^6-(2-methoxybenzyl)-NECA] the Ki (rat A3 receptor [2]; [3]) was 7.1 ± 0.3 nM.
`CCCCn1c(=O)c2c(ncn2[C@@H]2O[C@H](C(=O)N(C)C)[C@@H](O)[C@H]2O)n(CCCC)c1=O` [Compound 125, N,N-dimethyl 1,3-di-n-butylxanthine-7-β-D-ribofuronamide] gave an A1/A3 (rat A3 receptor [2]; Table 4, ratio of Ki) of 0.040 and an A2/A3 (rat A3 receptor [2]; Table 4, ratio of Ki) of 0.23.
With `Nc1ncnc2c1ncn2[C@@H]1O[C@H](CO)C[C@H]1O` [Compound 72, 3'-deoxyadenosine, reference compound] the IC50 (rat A3 receptor [2]) was > 100000 nM and the inhibition at 100 µM (rat A3 receptor [2]; [6]) was 32.7 ± 2%.
`CCCn1c(=O)c2[nH]c(C3CCCC3)nc2n(CCC)c1=O` [Compound 130, 8-cyclopentyl-1,3-dipropylxanthine] gave an inhibition at 10 µM (rat A3 receptor [2]; [4]) of 18.7 ± 2.9%.
In the case of `Nc1c2ncn([C@@H]3O[C@H](CO)[C@@H](O)[C@H]3O)c2nc[n+]1[O-]` [Compound 34, adenosine-N^1 -oxide, reference compound], the Ki (rat A3 receptor [2]; [3]) is reported as 3090 nM and the Ki (rat A3 receptor [2]; read-out: Ki at A3 receptors) is reported as 3090 nM.
In the case of `CCNC(=O)[C@H]1O[C@@H](n2cnc3c(NCc4ccc(OC)cc4)ncnc32)[C@H](O)[C@@H]1O` [Compound 67, N^6-(4-methoxybenzyl)adenosine-5'-N-ethyluronamide], the Ki (rat A3 receptor [2]; [3]) is reported as 11 ± 3 nM.
`Nc1nccc2c1ncn2[C@@H]1O[C@H](CO)[C@@H](O)[C@H]1O` [Compound 32, 3-deazaadenosine] gave a Ki (rat A3 receptor [2]; [3]) of 61700 nM and a Ki (rat A3 receptor [2]; read-out: Ki at A3 receptors) of 62000 nM.
In the case of `OC[C@H]1O[C@@H](n2cnc3c(NCCc4ccccc4)ncnc32)[C@H](O)[C@@H]1O` [Compound 8, N^6 -phenethyladenosine], the Ki (rat A3 receptor [2]; [3]) is reported as 240 ± 58 nM.
In the case of `Cn1c(=O)[nH]c2nc[nH]c2c1=O` [Compound 99, 1-methylX], the inhibition at 100 µM (rat A3 receptor [2]; [4]) is reported as 11.1 ± 1.6%.
For `OC[C@H]1O[C@@H](n2cnc3c(NC4CCCCC4)ncnc32)[C@H](O)[C@@H]1O` [Compound 5, N^6 -cyclohexyladenosine], the Ki (rat A3 receptor [2]; [3]) was 167 ± 26 nM.
With `CC(C)CSC[C@H]1O[C@@H](n2cnc3c(N)ncnc32)[C@H](O)[C@@H]1O` [Compound 76, 5'-deoxy-5'-isobutylthio adenosine, reference compound] the Ki (rat A3 receptor [2]; [3]) was 3360 nM.
In the case of `CCNC(=O)[C@H]1O[C@@H](n2cnc3c(=N)n(Cc4ccccc4[N+](=O)[O-])cnc32)[C@H](O)[C@@H]1O` [Compound 38, N'-(2-nitrobenzyl)NECA], the Ki (rat A3 receptor [2]; [3]) is reported as 27 ± 5 nM.
`CSC[C@H]1O[C@@H](n2cnc3c(N)ncnc32)[C@H](O)[C@@H]1O` [Compound 75, 5'-deoxy-5'-methylthioadenosine] gave a Ki (rat A3 receptor [2]; [3]) of 1.42 nM.
In the case of `CCCn1c(=O)c2c(ncn2[C@@H]2O[C@H](CO)[C@@H](O)[C@H]2O)n(CCC)c1=O` [Compound 118, 1,3-di-n-propylxanthine-7-β-D-ribofuranoside, reference compound], the A1/A3 (rat A3 receptor [2]) is reported as 0.20 and the A2/A3 (rat A3 receptor [2]) is reported as > 1.
In the case of `CCNC(=O)[C@H]1O[C@@H](n2cnc3c(NCc4cccc([N+](=O)[O-])c4)ncnc32)[C@H](O)[C@@H]1O` [Compound 62, N^6-(3-nitrobenzyl)-NECA], the Ki (rat A3 receptor [2]; [3]) is reported as 8.7 ± 1.2 nM.
In the case of `CNC(=O)[C@H]1O[C@@H](n2cnc3c(NCc4cccc(I)c4)nc(SC)nc32)[C@H](O)[C@@H]1O` [Example 46, N^6-(3-iodobenzyl)-2-methylthio-9-[5-(methylamido)-β-D-ribofuranosyl]-adenine], the “selectivity (in words)” value (rat A3 receptor [2]) is reported as “highly selective for A3 receptors”, the Ki (rat A3 receptor [2]; [5]) is reported as 2.3 ± 0.96 nM and the A1/A3 (rat A3 receptor [2]; Table 2, ratio of Ki) is reported as 930.
In the case of `O=C(NC1CC1)[C@H]1O[C@@H](n2cnc3c(NCc4ccccc4)ncnc32)[C@H](O)[C@@H]1O` [Compound 24, N^6-benzyladenosine-5'-N-cyclopropyluronamide], the “selectivity (in words)” value (rat A3 receptor [2]) is reported as “not selective”.
For `CCCCn1c(=O)c2c(ncn2[C@@H]2O[C@H](C(=O)NCC)[C@@H](O)[C@H]2O)n(CCCC)c1=O` [Compound 126, N-ethyl 1,3-di-n-butylxanthine-7-β-D-ribofuronamide], the A1/A3 (rat A3 receptor [2]; Table 4, ratio of Ki) was 10 and the A2/A3 (rat A3 receptor [2]; Table 4, ratio of Ki) was 63.
In the case of `CC(C)Cn1c(=O)n(C)c(=O)c2[nH]cnc21` [Compound 108, 3-isobutyl-1-methylxanthine], the inhibition at 100 µM (rat A3 receptor [2]; [6]) is reported as 30.1 ± 12.4%.
